# Ab-14 light chain CDR variants: yeast mating affinities

Target peptide (SARS-CoV-2 spike, HR2 region): PDVDLGDISGINAS

Each scFv is VH, the linker GGGGSGGGGSGGGGS, VL, as in the parent Ab-14, and differs from it in the CDRs of the light chain only.
VH: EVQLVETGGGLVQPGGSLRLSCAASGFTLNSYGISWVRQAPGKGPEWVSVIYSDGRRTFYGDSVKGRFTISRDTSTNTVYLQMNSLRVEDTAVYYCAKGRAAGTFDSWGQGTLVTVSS
VL: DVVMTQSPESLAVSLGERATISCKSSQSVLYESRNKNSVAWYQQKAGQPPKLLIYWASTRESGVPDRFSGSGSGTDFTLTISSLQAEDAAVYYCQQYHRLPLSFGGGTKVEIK

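The parent was found by panning a naive human phage display library on the peptide. These sequences belong to a second round, designed from the earlier measurements on random variants of the parent. Their group label is 14L_En_Gibbs (En: ensemble of fine-tuned language models; Gibbs: Gibbs sampling). The assay is AlphaSeq: two haploid yeast populations carry antibody and antigen on their surface. Pairs that bind mate more often; barcode pairs of the diploids are counted by sequencing. Each replicate has its own calibration line, from reference interactions of the BCL2 family. There are six technical replicates.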

The parent's light chain CDRs are KSSQSVLYESRNKNSVA, WASTRES, QQYHRLPLS; each variant's own CDRs replace them letter for letter. Numbers give log10(Kd / nM), so 0 is 1 nM and 3 is 1 µM. Smaller is tighter. "n.d." means that the variant was in the library but no mating with the target was seen in that replicate; the authors take this as a sign of poor binding, and no number exists.

CDR-L1,CDR-L2,CDR-L3,log10 Kd (nM) by replicate,signal with controls
NLSWKREMQNMDYYAVA,QTEIREA,QQYAILPLS,0.93 / 0.78 / 0.53 / 0.31 / 0.74 / 1.04,1/18 (4.03)
KLGAWMYWPTEAKYAIA,QDEMRVH,QQYDRLPLI,n.d. / n.d. / n.d. / n.d. / n.d. / n.d.,1/18 (1.29)
ILAENSDDITEKQNSIA,ETQMVYS,QQYHRLPLA,n.d. / n.d. / n.d. / n.d. / n.d. / n.d.,0/18
HLNEQLVMDSKNQNHVA,STETRES,QQYFRLPFT,0.23 / 0.33 / 0.18 / 0.30 / -0.27 / 0.11,1/18 (2.18)
SITVLDNPGSQGHNNIA,SGSCRAE,QQYIRLPLI,0.48 / 0.54 / 0.42 / 0.36 / 0.49 / 0.50,6/18 (3.25)
SLTKLETVGQKKSNNIA,EQSMRYE,QQYSQLPLK,0.58 / 1.02 / 0.69 / 0.48 / 0.86 / 0.73,0/18
MMLSHSLEVQNINNAVA,EASMVYD,QQYVSLPLS,n.d. / n.d. / n.d. / n.d. / n.d. / n.d.,0/18
KIRVNHLMFSQNESNIA,GSSVRSR,QQYYHLPLT,1.73 / 1.49 / 1.28 / 1.10 / 1.16 / 1.16,1/18 (2.64)
LLSGMVEEQITRQQNIA,EGEFRDM,QQYSRLPLS,1.74 / 1.12 / 0.61 / 0.93 / 0.70 / 0.60,0/18
QLGHYKHENMAKWQNVA,EMTIREK,QQYAHLPLA,1.12 / 0.87 / 1.54 / 1.01 / 1.17 / 1.08,1/18 (3.22)
RVTNELGKEMERKQSVA,ETDQRCM,QQYFRLPLI,0.31 / 0.42 / 0.32 / 0.20 / 0.19 / 0.44,0/18
HSNGNLRMDERNKNHVA,DTDVRES,QQYMRLPLV,0.58 / 0.38 / 0.51 / 0.37 / 0.58 / 0.88,0/18
TITEQGFEHMGNRNSVA,EAEHKQY,QQYAHLPLL,0.35 / 0.38 / 0.44 / 0.25 / 0.30 / 0.35,2/18 (2.74)
KLSWKSLGFETRWMAIA,NTKERNA,QQYARLPLS,1.20 / n.d. / 2.07 / 1.10 / 1.92 / 0.93,0/18
SLVQEKSVGDYNAGNVA,AGNQLSV,QQYNRLPLS,0.16 / -0.10 / -0.29 / -0.24 / -0.16 / 0.06,1/18 (2.81)
MFAGAMYGGGNDWSNIA,EAMTYIK,QQYSRLPLI,n.d. / n.d. / n.d. / n.d. / n.d. / n.d.,1/18 (1.69)
KLDQKNRWNGMANYNVA,DSNERVD,QQYHRLPLI,0.86 / 0.58 / 0.82 / 0.59 / 0.77 / 1.48,2/18 (3.18)
QFDMHEPYQGEQNASIA,GTTNRLT,QQYFKLPLS,0.63 / 0.89 / 0.46 / 0.60 / 0.56 / 0.66,0/18
SMSWAHFNGDNWKNSIA,DATHVAY,QQYSRLPIT,0.54 / -0.04 / 0.09 / -0.08 / 0.31 / 0.29,1/18 (2.36)
QLEQDQFPMGKGWHSIA,NATTLVA,QQYYYLPLS,0.50 / 0.45 / 0.37 / 0.50 / 0.50 / 0.55,1/18 (3.07)
TLVGNIQGGGWAKKSVA,DAVQRVN,QQYYRLPLS,-0.12 / 0.02 / -0.11 / -0.39 / -0.06 / 0.42,0/18
KLSTETYGLTGHTSSIA,HEEIRWA,QQYHKLPLI,0.99 / 1.51 / 0.87 / 1.43 / 1.02 / 0.35,1/18 (2.05)
HLSANMWMESSMWDAVA,QGDIAMN,QDYSRLPLS,2.31 / 2.44 / 1.51 / 3.53 / 2.52 / 2.00,0/18
SLAYTQHFGFSQEKAIA,EVATREQ,QQYFRLPLG,n.d. / n.d. / n.d. / n.d. / n.d. / n.d.,0/18
QFSNVNMQGNAQWANVA,EATYAFE,QQYARLPLQ,1.67 / n.d. / 0.82 / 1.23 / n.d. / n.d.,0/18
LIETLSQGMRLNWSAVA,EAHMLVQ,QHYARLPLS,1.57 / 1.20 / 0.97 / 0.85 / 1.55 / 0.57,0/18
MLSLNLHDMDANINNVA,EMNKLTA,QDYHRLPLA,1.17 / 0.87 / 0.97 / 0.71 / 1.19 / 1.16,0/18
AVVKMKSEGDYHAANVA,NANLRSD,QQYYRLPLI,0.21 / 0.41 / 0.12 / 0.13 / 0.21 / 0.34,1/18 (3.09)
MLTISGDETHEKAFSIA,NVTNKEY,QQYARLPLT,1.21 / 1.04 / 0.93 / 0.97 / 1.06 / 1.05,0/18
NLVGRVPDNYQERNAIA,DMHCRAG,QQYERLPLA,n.d. / n.d. / 1.54 / n.d. / n.d. / 1.66,0/18
RITHSQLDYRNPEANIA,HESMKAV,QQYSQLPLT,0.71 / 0.57 / 0.54 / 0.52 / 0.26 / 0.56,0/18
NLDLFIPSQKEWDASIA,GATLRPT,QDYARLPLS,2.12 / 1.15 / 1.66 / 2.56 / 1.93 / 2.23,1/18 (3.00)
SFHEINFEGLAQTANVA,NASYLFE,QQYFRLPLT,0.80 / 1.07 / 0.91 / 0.53 / 0.60 / 0.56,2/18 (2.41)
KLTISIRGEGSEVQSVA,GAENLRQ,QHYNQLPLS,n.d. / n.d. / n.d. / n.d. / n.d. / n.d.,1/18 (2.02)
NIVGRVEDKQTETANIA,DAECRAG,QQYSRLPLS,0.36 / 0.36 / 0.30 / 0.94 / 0.52 / 0.72,0/18
KIRVQQYMQSEMESNIA,GESVRHS,QQYFHLPLT,1.05 / 1.00 / 0.28 / 0.74 / 0.73 / 1.09,0/18
KITFQMMSSNAHDYSIA,QTNVYSD,QQYGRLPLD,n.d. / n.d. / n.d. / n.d. / n.d. / n.d.,0/18
KINERMRMGENQQHSIA,NATEIVK,QQYHNLPLG,0.64 / 0.51 / 0.52 / 0.29 / 0.24 / 0.19,0/18
SCPSEMDQQQEQVNSVA,GEQHTAD,QQYGRLPLS,1.24 / n.d. / n.d. / n.d. / n.d. / n.d.,0/18
KFAEQIMHVYQGANAIA,DATVKSA,QQYLRLPLM,0.32 / 0.13 / 0.40 / -0.09 / 0.31 / 0.38,0/18
RVQINSGHSDMHWKSIA,SASIRAD,QQYERLPLE,0.36 / 0.30 / 0.25 / 0.41 / 0.82 / 1.32,2/18 (2.30)
KLGMWTYGPTEAKYNVA,EDEMRWH,QQYDRLPLI,n.d. / n.d. / n.d. / n.d. / n.d. / n.d.,0/18
KVQLGLERGNQAYSAVA,GETQKGD,QQYFQLPLG,1.14 / 0.99 / 0.70 / 0.84 / 0.45 / 0.99,0/18
RLWAYTQGFWRAMQNIA,DISYRVT,QQYGRLPLS,n.d. / n.d. / 2.49 / n.d. / n.d. / n.d.,0/18
KLWAYTQGFFRNMQNIA,DGSYRVT,QQYGRLPLS,0.73 / 0.45 / 0.44 / 0.66 / 0.64 / 0.69,2/18 (2.02)
HINEVDPGVKNKYNNIA,DISEAAI,QQYFQLPLS,0.39 / 0.50 / 0.61 / 0.20 / 0.38 / 0.49,1/18 (2.41)

Extract of 3 entries:

CDR-L1,CDR-L2,CDR-L3,log10 Kd (nM) by replicate,signal with controls
KLGAWMYWPTEAKYAIA,QDEMRVH,QQYDRLPLI,n.d. / n.d. / n.d. / n.d. / n.d. / n.d.,1/18 (1.29)
KLWAYTQGFFRNMQNIA,DGSYRVT,QQYGRLPLS,0.73 / 0.45 / 0.44 / 0.66 / 0.64 / 0.69,2/18 (2.02)
AVVKMKSEGDYHAANVA,NANLRSD,QQYYRLPLI,0.21 / 0.41 / 0.12 / 0.13 / 0.21 / 0.34,1/18 (3.09)

The range of this assay differs from that of the first round, and the authors advise against merging the two. As a blank, each scFv also met three strains without target: over all light chain designs, 4% of these pairings were detected, typically at 2.64 and seldom below 1.59. The control count says in how many pairings with the empty strains this scFv gave a signal, with their mean in brackets. The authors averaged sequences with at least three values out of six and counted those with two or fewer as poor binders.

Data: MIT Lincoln Laboratory AlphaSeq set, Li et al. 2023, doi:10.1038/s41467-023-39022-2, as distributed in FLAb.